Assay results reported in paper PMC11236204 (PLOS Pathogens, 2024).
Read-outs that look alike come from different tables or passages of the source.

Key:
[1] = system: Ifit2, Cxcl10, Tnfa, Cxcl1 RNA; assay: ISG and inflammatory gene expression by qPCR, rat cortical neurons; format: cell-based; conditions: for Rel. Fold change Tnfa RNA: Fig 4G; for Rel. Fold change Tnfa RNA / Rel. Fold change Cxcl1 RNA / Rel. Fold change Cxcl10 RNA: vehicle = 1; for Rel. Fold change Cxcl1 RNA: Fig 4H; for Rel. Fold change Cxcl10 RNA: Fig 4I
IFIT1, CXCL10, TNFα RNA = conditions: U2OS; 10 μg/mL; 4h or 24h
Cxcl1, Ccl2 RNA = conditions: four hour stimulation
rat cortical neurons = conditions: Fig 4A-B
mouse cortical neurons = assay: Relative survival of mouse cortical neurons

`CCCCCCCCCCCCCCCC(=O)N[C@@H](CSCC(COC(=O)CCCCCCCCCCCCCCC)OC(=O)CCCCCCCCCCCCCCC)C(=O)N[C@@H](CO)C(=O)N[C@@H](CCCCN)C(=O)N[C@@H](CCCCN)C(=O)N[C@@H](CCCCN)C(=O)N[C@@H](CCCCN)C(=O)O` (stereo partly drawn) [Pam3CSK4] was tested, and the “Rel. Fold change Tnfa RNA” value ([1]; replicate 1) was 220.074, the “Rel. Fold change Tnfa RNA” value ([1]; replicate 2) was 94.1012 and the “Rel. Fold change Tnfa RNA” value ([1]; replicate 3) was 395.841. For the same molecule, the “Rel. Fold change Cxcl1 RNA” value ([1]; replicate 1) was 688.291, the “Rel. Fold change Cxcl1 RNA” value ([1]; replicate 2) was 977.752 and the “Rel. Fold change Cxcl1 RNA” value ([1]; replicate 3) was 842.13. The “Rel. Fold change Cxcl1 RNA” value ([1]; replicate 4) was 514.847, the “Rel. Fold change Cxcl10 RNA” value ([1]; replicate 1) was 1255.71 and the “Rel. Fold change Cxcl10 RNA” value ([1]; replicate 2) was 913.999. For the same molecule, the “Rel. Fold change Cxcl10 RNA” value ([1]; replicate 3) was 1326.05, the “Rel. Fold change Cxcl10 RNA” value ([1]; replicate 4) was 1156.06 and the “inflammatory gene transcription (Tnfa, Cxcl1, Cxcl10)” value ([1]; rat neurons, 10μg/mL for 4h) was “induced inflammatory gene transcription”. The “induction of Ifit2” value ([1]; rat neurons, 10μg/mL, 4h or 24h) was “no induction”, the “induction of IFIT1” value (IFIT1, CXCL10, TNFα RNA) was “no induction” and the “Cxcl1 and Ccl2 expression” value (Cxcl1, Ccl2 RNA; TLR2 KO mouse neurons) was “ablated”. The “Cxcl1 and Ccl2 expression” value (Cxcl1, Ccl2 RNA; wild type mouse neurons) was “induced expression”, the “Avg. Log2 Fold change / vehicle” value (rat cortical neurons; gene Abcb1b) was 2.88 and the “Avg. Log2 Fold change / vehicle” value (rat cortical neurons; gene Angptl4) was 2.14. The “Avg. Log2 Fold change / vehicle” value (rat cortical neurons; gene C1s) was 0.86, the “Avg. Log2 Fold change / vehicle” value (rat cortical neurons; gene C3) was 2.64 and the “Avg. Log2 Fold change / vehicle” value (rat cortical neurons; gene Ccl2) was 6.45. The “Avg. Log2 Fold change / vehicle” value (rat cortical neurons; gene Ccl7) was 4.1, the “Avg. Log2 Fold change / vehicle” value (rat cortical neurons; gene Ccl20) was 3.54 and the “Avg. Log2 Fold change / vehicle” value (rat cortical neurons; gene Cd44) was 2.32. For the same molecule, the “Avg. Log2 Fold change / vehicle” value (rat cortical neurons; gene Cd83) was 2.1, the “Avg. Log2 Fold change / vehicle” value (rat cortical neurons; gene Cdkn2b) was 1.64 and the “Avg. Log2 Fold change / vehicle” value (rat cortical neurons; gene Cebpd) was 3.31. For the same molecule, the “Avg. Log2 Fold change / vehicle” value (rat cortical neurons; gene Csf1) was 2.93, the “Avg. Log2 Fold change / vehicle” value (rat cortical neurons; gene Cxcl1) was 6.42 and the “Avg. Log2 Fold change / vehicle” value (rat cortical neurons; gene Cxcl9) was 0.78. For the same molecule, the “Avg. Log2 Fold change / vehicle” value (rat cortical neurons; gene Cxcl10) was 5.14, the “Avg. Log2 Fold change / vehicle” value (rat cortical neurons; gene Fam129a) was 3.12 and the “Avg. Log2 Fold change / vehicle” value (rat cortical neurons; gene Gadd45b) was 1.39. For the same molecule, the “Avg. Log2 Fold change / vehicle” value (rat cortical neurons; gene Gbp2) was 3.21, the “Avg. Log2 Fold change / vehicle” value (rat cortical neurons; gene Gbp5) was 3.92 and the “Avg. Log2 Fold change / vehicle” value (rat cortical neurons; gene Has2) was 2.88. The “Avg. Log2 Fold change / vehicle” value (rat cortical neurons; gene Herc6) was 1.66, the “Avg. Log2 Fold change / vehicle” value (rat cortical neurons; gene Icam1) was 4.13 and the “Avg. Log2 Fold change / vehicle” value (rat cortical neurons; gene Ifih1) was 1.51. For the same molecule, the “Avg. Log2 Fold change / vehicle” value (rat cortical neurons; gene Irf1) was 1.24, the “Avg. Log2 Fold change / vehicle” value (rat cortical neurons; gene Irgm) was 1.31 and the “Avg. Log2 Fold change / vehicle” value (rat cortical neurons; gene Lcn2) was 4.7. For the same molecule, the “Avg. Log2 Fold change / vehicle” value (rat cortical neurons; gene Lrrc38) was 1.16, the “Avg. Log2 Fold change / vehicle” value (rat cortical neurons; gene Mpa2l) was 2.98 and the “Avg. Log2 Fold change / vehicle” value (rat cortical neurons; gene Nfkb2) was 2.42. The “Avg. Log2 Fold change / vehicle” value (rat cortical neurons; gene Nfkbiz) was 2.34, the “Avg. Log2 Fold change / vehicle” value (rat cortical neurons; gene Parp9) was 0.99 and the “Avg. Log2 Fold change / vehicle” value (rat cortical neurons; gene Parp14) was 1.07. The “Avg. Log2 Fold change / vehicle” value (rat cortical neurons; gene Ptrf) was 1.56, the “Avg. Log2 Fold change / vehicle” value (rat cortical neurons; gene RGD1309362) was 1.04 and the “Avg. Log2 Fold change / vehicle” value (rat cortical neurons; gene RT1-CE7) was 1.17. For the same molecule, the “Avg. Log2 Fold change / vehicle” value (rat cortical neurons; gene Rab32) was 1.86, the “Avg. Log2 Fold change / vehicle” value (rat cortical neurons; gene Rassf4) was 2.75 and the “Avg. Log2 Fold change / vehicle” value (rat cortical neurons; gene Relb) was 1.71. For the same molecule, the “Avg. Log2 Fold change / vehicle” value (rat cortical neurons; gene Rhbdl3) was 1.18, the “Avg. Log2 Fold change / vehicle” value (rat cortical neurons; gene Ripk2) was 2.03 and the “Avg. Log2 Fold change / vehicle” value (rat cortical neurons; gene Rnf213) was 1.01. The “Avg. Log2 Fold change / vehicle” value (rat cortical neurons; gene Rsad2) was 2.71, the “Avg. Log2 Fold change / vehicle” value (rat cortical neurons; gene S1pr3) was 1.81 and the “Avg. Log2 Fold change / vehicle” value (rat cortical neurons; gene Tnfaip2) was 3.01. The “Avg. Log2 Fold change / vehicle” value (rat cortical neurons; gene Zc3h12a) was 3.15, the “Avg. Log2 Fold change / vehicle” value (rat cortical neurons; gene Zc3hav1) was 1.17 and the cytotoxicity (mouse cortical neurons) was “no cytotoxicity”.
